Data as given in paper PMC12640663, “Impact of C18 Epimerization of Indole‐ and Pyrazole‐Fused 18β‐Glycyrrhetinic Acid Derivatives on PTP1B and TCPTP Inhibitory Activity: Synthesis, In Vitro, and In Silico Studies” (Chemmedchem, 2025).

Legend:
[1] = molecular target: T1, hPTP1B1–400 (Homo sapiens, UniProt P18031); assay: Kinetic studies of PTP1B (hPTP1B1–400); conditions: K i, ± S.D; hPTP1B1–400, p‐NPP 0.1 to 0.5 mM;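 note: enzyme kinetics run across a range of substrate and inhibitor levels, control lacking inhibitor, triplicate runs, parameters derived by fitting Michaelis–Menten style equations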
T1 sequence (P18031 1-400): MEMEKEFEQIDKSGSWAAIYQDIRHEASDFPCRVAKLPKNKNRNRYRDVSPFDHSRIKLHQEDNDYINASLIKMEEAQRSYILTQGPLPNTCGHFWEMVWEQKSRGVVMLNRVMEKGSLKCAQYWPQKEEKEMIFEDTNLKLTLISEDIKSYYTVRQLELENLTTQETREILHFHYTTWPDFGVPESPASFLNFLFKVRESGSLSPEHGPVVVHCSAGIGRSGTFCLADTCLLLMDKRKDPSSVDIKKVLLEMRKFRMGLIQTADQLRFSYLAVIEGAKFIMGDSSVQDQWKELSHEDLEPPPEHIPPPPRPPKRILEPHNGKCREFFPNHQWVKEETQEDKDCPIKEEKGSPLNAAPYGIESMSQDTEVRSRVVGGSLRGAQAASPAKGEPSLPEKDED

[2] = molecular target: T1, hPTP1B1–400; assay: PTP1B activity assay, long form hPTP1B1–400 (p‐NPP); assay type: biochemical; parameters: hPTP1B1–400 (the long form with an intrinsically disordered C‐terminal regulatory domain); conditions: ± S.D; p‐NPP substrate, 15 min at 37 °C, triplicate
Protocol: The inhibitory activity of PTP1B was assessed using two enzyme variants: hPTP1B1–285 (the short form with an N‐terminal catalytic domain) and hPTP1B1–400 (the long form with an intrinsically disordered C‐terminal regulatory domain). […] According to Coronel‐Tovar et al., the disordered region of the C‐terminal domain plays a crucial role in modulating PTP1B enzymatic activity.^[ [30] ^] […] Different concentrations of the compounds were evaluated to determine their IC50 values (Table 1 ).
Recombinant human protein tyrosine phosphatase 1B, consisting of 400 and 285 amino acid residues, was used.^[ [35] ^] […] Aliquots of 0–10 µL of the test compounds (triplicate) were taken and incubated for 15 min at 37 °C with 85 µL of Tris buffer solution (50 mM, pH 6.8) containing PTP1B enzyme and 5 µL of p‐nitrophenyl phosphate substrate (p‐NPP, 10 mM). Absorbance was then measured at a wavelength of 405 nm. The inhibitory activity was determined according to Equation (1). (1) % PTP1B=(A405b/A405c)×100 where % PTP1B: Is the percentage of inhibition. A 405c: Is the corrected absorbance of the blank (A 405initial–A 405final). A 405b: Is the corrected absorbance of the compounds (A 405control–A 405compound).

| SMILES | Ki [1] | IC50 [2] |
| --- | --- | --- |
| CC1(C)[C@@H](O)CC[C@]2(C)[C@H]3C(=O)C=C4[C@@H]5C[C@@](C)(C(=O)O)CC[C@]5(C)CC[C@@]4(C)[C@]3(C)CC[C@@H]12 [18β‐GA, 18β‐glycyrrhetinic acid] | 1.63 ± 0.5 µM | 15.4 ± 0.95 µM |
| CC1(C)[C@@H](O)CC[C@]2(C)[C@H]3C(=O)C=C4[C@H]5C[C@@](C)(C(=O)O)CC[C@]5(C)CC[C@@]4(C)[C@]3(C)CC[C@@H]12 [18α‐GA, 18α‐glycyrrhetinic acid] | 0.62 ± 0.19 µM | 2.87 ± 0.21 µM |
